The record followed here is patent EP4595978A1, “ANTI-CD33 ANTIBODY AND ANTI-CD33 ANTIBODY-DRUG CONJUGATE AND USE THEREOF” (SystImmune, Inc., priority 2022, dated 2024).

Sequences of proteins named here, by UniProt entry; tags and fusion partners are left off. Residues count along the entry.
UniProt P20138, 18-364: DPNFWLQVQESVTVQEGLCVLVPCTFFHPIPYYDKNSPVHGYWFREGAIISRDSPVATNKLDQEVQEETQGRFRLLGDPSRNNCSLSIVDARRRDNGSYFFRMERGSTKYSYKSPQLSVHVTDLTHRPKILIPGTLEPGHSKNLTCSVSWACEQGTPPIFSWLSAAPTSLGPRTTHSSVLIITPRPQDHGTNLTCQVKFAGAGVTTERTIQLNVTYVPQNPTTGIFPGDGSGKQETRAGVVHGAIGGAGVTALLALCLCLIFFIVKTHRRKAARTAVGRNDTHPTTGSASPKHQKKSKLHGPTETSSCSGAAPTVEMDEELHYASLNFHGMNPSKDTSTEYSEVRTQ

Series [1] can be described thus: Determination of monomer rate by SEC-HPLC. The format is physicochemical. The procedure:
Example 106: Determination of monomer rate by method SEC-HPLC
Determination of monomer rate method: using SEC-HPLC Column: Biocore SEC-300 5 µm, 4.6×300 mm Manufacturer: NanoChrom, Item No.: B213-050030-04630S Mobile phase: 50 mM PB+300 mM NaCl+200 mM Arg+5% IPA, pH=6.5 Table 1: Methodological parameters

The conditions of series [2]: for DAR, Incubate Day 0 / DAR, Incubate Day 3 / DAR, Incubate Day 7: IgG-free human plasma, ADC 0.6 mg/mL; for DAR, Incubate Day 0: 0 days, then extraction; for DAR, Incubate Day 3 / DAR, Incubate Day 7: 37°C; for DAR, Incubate Day 3: 3 days; for DAR, Incubate Day 7: 7 days; for DAR, Unincubated Extract: purification and extraction without incubation with plasma; for DAR, Unincubated No Extract: stability at 4°C for 0 days, no plasma incubation, no extraction. How it is done:
Example 109: Plasma Stability Assay
A mixture of ADC and IgG-free human plasma was prepared to a final concentration of ADC of 0.6 mg/mL and placed in a water bath in a 37°C incubator for incubation. The incubation time was set to 0 days, 3 days, and 7 days. At the same time, unincubated and unextracted controls and unincubated and extracted controls were set. The incubated samples were purified and extracted, and the drug-antibody ratio DAR was measured to reflect the stability of ADC in human plasma.

Series [3] addresses recombinant human CD33 protein (Homo sapiens, UniProt P20138). Kind of series: ELISA binding of antibody-drug conjugates to recombinant human CD33 protein. Conditions: CD33 coated at 0.5 µg/mL, statement in words. How it is done: Example 110: ELISA to detect the binding of antibody-drug conjugates to recombinant human CD33 protein
The binding ability of antibodies to antigens can be preliminarily determined by ELISA. In the present invention, the recombinant human CD33 protein was fixed on the enzyme strip, and a series of CD33 antibodies with a concentration gradient were added for detection. • 1. Coating: Dilute CD33 to 0.5 µg/mL with 1×PBS, 100 µL per well, and coat overnight at 4°C. • 2. Washing: Wash the plate 3 times with washing buffer (1×PBS+0.05%Tween20), 200 µL per well, and let stand for 1 min each time. • 3. Blocking: After patting the washing buffer dry for the third time, add blocking buffer (1×PBS+0.05%Tween20+1% BSA), 200 µL per well, and block at 37°C for 1 hour. • 4. Washing: Wash the plate 3 times with washing buffer, 200 µL per well, and let stand for 1 min each time. • 5. Loading of primary antibody: dilute the antibody-drug conjugate from 2 µg/mL in a 3-fold gradient with sample diluent (1×PBS+0.05%Tween20+1% BSA); wash the plate 3 times with plate washing buffer, 200 µL per well, and let stand for 1 min each time. • 6. Loading of secondary antibody: dilute Solarbio's rabbit anti-human antibody 1:10000 to 100 µL per well with analysis buffer (1×PBS+0.05%Tween20+1% BSA), and let stand for 1 hour at 37°C. • 7. Washing: Wash the plate 3 times with plate washing buffer, 200 µL per well, and let stand for 1 min each time. • 8. Reading: Add TMB colorimetric solution (50 µL per well) and stop the color development after 7 min by adding 2 M H2SO4 (50 µL per well). Read the plate at 450 nm using an ELISA reader. […] Example 111: In vitro efficacy detection of antibody-drug conjugates.

The subject of another series is U937 cells. Briefly: In vitro efficacy of ADCs (Example 111), U937. Format: cell-based, human. The settings on record: treatment for 5 days, Alamar Blue or MTS. The procedure: (§1) In the present invention, various human tumor cell lines (HL-60, HEL92.1.7, TF-1, MV4-11, MOLM-13, U937 and CMK) were used as experimental models to evaluate the in vitro efficacy of ADC drugs. A certain number of tumor cell lines were inoculated in a 96-well plate, and gradient dilutions of the test antibody and the corresponding ADC drug were added to the cells. After treatment for 5 days, Alamar Blue or MTS was used to detect cell viability, and the inhibitory effect of the test antibody and ADC on the tumor cell line was evaluated by calculating IC50. The initial concentration of the antibody drug was 500 nM, the dilution multiple was 7 times, a total of 8 concentration points, and the treatment lasted for 5 days. The final algorithm was based on the survival rate = (experimental group-blank)/(control group-blank group) × 100%, and then the half-maximal inhibitory concentration (IC50) was calculated using Graph Pad Prism to fit the curve.

In another series the test system is HL-60 cells. Briefly: In vitro efficacy of ADCs (Example 111), HL-60. Conditions: treatment for 5 days, Alamar Blue or MTS. Format: cell-based, human. How it is done: as §1
A further series concerns TF-1 cells. Briefly: In vitro efficacy of ADCs (Example 111), TF-1. Format: cell-based, human. The settings on record: treatment for 5 days, Alamar Blue or MTS. How it is done:
as §1

The subject of another series is HEL92.1.7 cells. Kind of series: In vitro efficacy of ADCs (Example 111), HEL92.1.7. Format: cell-based, human. Conditions: treatment for 5 days, Alamar Blue or MTS. How it is done: as §1
In another series the test system is CMK cells. Kind of series: In vitro efficacy of ADCs (Example 111), CMK. Format: cell-based, human. Conditions: treatment for 5 days, Alamar Blue or MTS. The procedure: as §1
The test system of the next series is MV4-11 cells. Kind of series: In vitro efficacy of ADCs (Example 111), MV4-11. Format: cell-based, human. Conditions: treatment for 5 days, Alamar Blue or MTS. How it is done:
as §1

In another series the test system is MOLM-13 cells. Briefly: In vitro efficacy of ADCs (Example 111), MOLM-13. The format is cell-based, human. Conditions: treatment for 5 days, Alamar Blue or MTS. The procedure: as §1

B1: ADC-46 (conjugate)
heavy: EVQLVQSGAEVKKPGSSVKVSCKASGYTITDSNIHWVRQAPGQSLEWIGYIYPYNGGTDYNQKFKNRATLTVDNPTNTAYMELSSLRSEDTAFYYCVNGNPWLAYWGQGTLVTVSSASTKGPSVFPLAPSSKSTSGGTAALGCLVKDYFPEPVTVSWNSGALTSGVHTFPAVLQSSGLYSLSSVVTVPSSSLGTQTYICNVNHKPSNTKVDKRV[human IgG1 Fc not given here]
light: DIQLTQSPSTLSASVGDRVTITCRASESLDNYGIRFLTWFQQKPGKAPKLLMYAASNQGSGVPSRFSGSGSGTEFTLTISSLQPDDFATYYCQQTKEVPWSFGQGTKVEVKRTVAAPSVFIFPPSDEQLKSGTASVVCLLNNFYPREAKVQWKVDNALQSGNSQESVTEQDSKDSTYSLSSTLTLSKADYEKHKVYACEVTHQGLSSPVCTKSFNRGEC
B1 displayed a Degradation % in [1] of 0.000%. Besides, in series [2], the “DAR, Incubate Day 0” value amounted to 8.49; the “DAR, Incubate Day 3” value amounted to 8.46; the “DAR, Incubate Day 7” value came out at 8.32; the “DAR, Unincubated Extract” value came out at 8.46. The “DAR, Unincubated No Extract” value in series [2] turned out to be 8.56. In addition, in [3], the “affinity to CD33 antigen compared with the naked antibody (EC50)” value is listed as “maintained similar affinity to the naked antibody”.

B2: ADC-48 (conjugate)
heavy: B1 heavy
light: B1 light
In the case of B2, the IC50 with U937 cells was determined as 177 nM; with HL-60 cells, 20.5 nM; with TF-1 cells, 0.75 nM; in the series with HEL92.1.7 cells it was 20.2 nM; in the series with CMK cells it was 60.1 nM; with MV4-11 cells, 0.84 nM. In addition, in the series on MOLM-13 cells, 0.06 nM corresponded to half-maximal inhibition (IC50). In addition, the Degradation % in series [1] amounted to 0.000%. Further, in series [2], the “DAR, Incubate Day 0” value is recorded as 7.88. The “DAR, Incubate Day 3” value in series [2] was 7.65. The “DAR, Incubate Day 7” value in series [2] amounted to 7.29. Moreover, the “DAR, Unincubated Extract” value in series [2] is listed as 7.91. Also, in [2], the “DAR, Unincubated No Extract” value was 8.01. The “affinity to CD33 antigen compared with the naked antibody (EC50)” value in series [3] was “maintained similar affinity to the naked antibody”.

B3: ADC-47 (conjugate)
heavy: B1 heavy
light: B1 light
B3: the IC50 in the series with U937 cells was found to be 7.64 nM; in the series with HL-60 cells, 2.76 nM; in the series on TF-1 cells, 0.13 nM; in the series on HEL92.1.7 cells, 1.31 nM; in the series on CMK cells it was 7.05 nM; with MV4-11 cells, 0.49 nM. The same molecule returned a half-inhibitory concentration (IC50) in the series with MOLM-13 cells of 0.13 nM. Further, in [1], the Degradation % came out at 0.000%. For the same molecule, in series [2], the “DAR, Incubate Day 0” value amounted to 8.24. Also, the “DAR, Incubate Day 3” value in series [2] is 8.16. Also, in series [2], the “DAR, Incubate Day 7” value stood at 8.2. Besides, the “DAR, Unincubated Extract” value in series [2] is listed as 8.17. Moreover, the “DAR, Unincubated No Extract” value in [2] is recorded as 8.32. Further, the “affinity to CD33 antigen compared with the naked antibody (EC50)” value in [3] was “maintained similar affinity to the naked antibody”.
